From article PMC6831611, “Proof-of-Concept Study of Drug Brain Permeability Between in Vivo Human Brain and an in Vitro iPSCs-Human Blood-Brain Barrier Model” (Scientific Reports, 2019)
Like-named read-outs stand apart in the source and are kept apart here.

Key:
human brain (BBB) = conditions: PET, cited from earlier work; for K1, rate constant for transfer from arterial plasma into brain: human brain
[1] = test system: ABC transporters (P-gp) in the iPSC-hBBB model
[2] = test system: ABC transporters in the in vitro primary rat cell based BBB model
iPSC-hBBB monolayer = test: Apparent permeability (Papp A to B) across the in vitro iPSC-hBBB model; conditions: PappAB

| Substance | K1, rate constant for transfer from arterial plasma into brain (human brain (BBB)) [mL.cm-3.min-1] | ABC transporter substrate / interaction (in words) [1] | PappBA/PappAB efflux ratio (ER) [1] | efflux ratio (ER) [2] | K1, rate constant for transfer from arterial plasma into brain (human brain (BBB); ref unpublished data) [mL.cm-3.min-1] | cerebral uptake / brain distribution in human brain (in words) (human brain (BBB); in vivo, human, ref S1 Table 1) | in vitro permeability across the iPSC-hBBB model (in words) (iPSC-hBBB monolayer) |
| --- | --- | --- | --- | --- | --- | --- | --- |
| 2F-A85380-tartrate [fluoro-A85380] | 0.11 | likely to be also ABC transporter substrates | ≥ 1.25 | ≥ 1.25 | – | – | – |
| buprenorphine | – | – | – | – | 0.17 | high cerebral uptake | high permeability in only the iPSC-hBBB model |
